Earlier results as cited in PMC7509035, “[^68Ga]ABY-028: an albumin-binding domain (ABD) protein-based imaging tracer for positron emission tomography (PET) studies of altered vascular permeability and predictions of albumin-drug conjugate transport” (EJNMMI Research, 2020).

What was measured:
[1] = due to binding to FcRn; ref [14]; cited from earlier work
Text: (§1) Albumin, the most abundant plasma protein, has been frequently used as a carrier platform to deposit drugs and diagnostic imaging agents in tissues with altered vascular permeability. Albumin’s circulatory half-life is quite long, approximately 20 days, due to its binding to the neonatal Fc receptor (FcRn). Albumin is transported through the normal endothelium by transcellular pathways at a rate of approximately 5% per hour, but the transport pathways change and the rates of and total albumin uptake often increase when endothelial barriers are disrupte ...

normal endothelium = details: transcellular pathways; ref [16]; cited from earlier work
Text: as §1

## Albumin: most abundant plasma protein
[1]
  circulatory half-life: approximately 20 days
Normal endothelium
  transport rate through normal endothelium: approximately 5 % per hour
